Reference: US7759499B2, “Compounds as inhibitors of hepatitis C virus NS3 serine protease” (Schering Corporation, priority 2004, dated 2010)

Sequences of proteins named here, by UniProt entry; tags and fusion partners are left off. Residues count along the entry.
UniProt P27958, 1027-1657: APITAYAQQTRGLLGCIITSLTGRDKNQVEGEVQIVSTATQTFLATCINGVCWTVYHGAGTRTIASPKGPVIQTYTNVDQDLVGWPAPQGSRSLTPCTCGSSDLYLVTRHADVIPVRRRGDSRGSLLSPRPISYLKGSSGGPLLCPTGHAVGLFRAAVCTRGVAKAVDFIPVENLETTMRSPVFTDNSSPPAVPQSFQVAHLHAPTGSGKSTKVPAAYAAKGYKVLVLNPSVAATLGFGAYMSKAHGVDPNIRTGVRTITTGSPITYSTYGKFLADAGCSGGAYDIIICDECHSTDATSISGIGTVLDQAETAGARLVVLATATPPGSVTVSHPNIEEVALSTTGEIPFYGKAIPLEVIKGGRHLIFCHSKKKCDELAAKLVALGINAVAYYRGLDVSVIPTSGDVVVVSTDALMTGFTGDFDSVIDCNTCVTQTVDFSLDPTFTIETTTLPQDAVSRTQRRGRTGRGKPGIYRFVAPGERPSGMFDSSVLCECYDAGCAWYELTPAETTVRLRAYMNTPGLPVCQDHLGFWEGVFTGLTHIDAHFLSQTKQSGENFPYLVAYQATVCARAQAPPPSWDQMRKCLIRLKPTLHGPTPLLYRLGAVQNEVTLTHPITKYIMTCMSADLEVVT
UniProt P27958, 1658-1711: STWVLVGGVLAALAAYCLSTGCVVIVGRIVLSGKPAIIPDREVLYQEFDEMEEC

The molecules below were run against Recombinant heterodimeric HCV NS3/NS4A protease (strain 1a) (Hepatitis C virus genotype 1a, UniProt P27958) (assay: Spectrophotometric assay for HCV protease inhibitory activity). Conditions: Table 2, range.
Assay type: biochemical

| Structure (SMILES) | Ki [nM] |
| --- | --- |
| C#CCCC(NC(=O)[C@@H]1[C@@H]2[C@H](CN1C(=O)[C@@H](NC(=O)N[C@H](CN(C)S(=O)(=O)c1ccccc1)C(C)(C)C)C1CCCCC1)C2(C)C)C(=O)C(=O)NCC=C (some centres unmarked) [Compound 11355] | ≤ 75 |
| C=CCNC(=O)C(=O)C(CCCC)NC(=O)[C@@H]1[C@@H]2[C@H](CN1C(=O)[C@@H](NC(=O)N[C@H](CN(C)S(=O)(=O)c1ccccc1)C(C)(C)C)C(C)(C)C)C2(C)C (some centres unmarked) [Compound 11356] | ≤ 75 |
| CCCCC(NC(=O)[C@@H]1[C@@H]2[C@H](CN1C(=O)[C@@H](NC(=O)N[C@H](CN(C)S(=O)(=O)CC)C(C)(C)C)C1Cc3ccccc3C1)C2(C)C)C(=O)C(=O)NCC (some centres unmarked) [Compound 11357] | ≤ 75 |
| CCCCC(NC(=O)[C@@H]1[C@@H]2[C@H](CN1C(=O)[C@@H](NC(=O)N[C@H](CN(C)S(=O)(=O)CC)C(C)(C)C)C1Cc3ccccc3C1)C2(C)C)C(=O)C(=O)NCC1CC1 (some centres unmarked) [Compound 11358] | ≤ 75 |
| CCCCC(NC(=O)[C@@H]1[C@@H]2[C@H](CN1C(=O)[C@@H](NC(=O)N[C@H](CN(C)S(=O)(=O)CC)C(C)(C)C)C1(C)CCCCC1)C2(C)C)C(=O)C(=O)NCC (some centres unmarked) [Compound 11359] | ≤ 75 |
| C=CCNC(=O)C(=O)C(CCCC)NC(=O)[C@@H]1[C@@H]2[C@H](CN1C(=O)[C@@H](NC(=O)N[C@H](CC(C)S(=O)(=O)c1cc(CN(C)C(=O)c3ccccc3)cs1)C(C)(C)C)C(C)(C)C)C2(C)C (some centres unmarked) [Compound 11360] | ≤ 75 |
| C=CCNC(=O)C(=O)C(CC1CCC1)NC(=O)[C@@H]1[C@@H]2[C@H](CN1C(=O)[C@@H](NC(=O)N[C@H](CN(C)S(=O)(=O)c1ccccc1)C(C)(C)C)C1CCCCC1)C2(C)C (some centres unmarked) [Compound 11361] | ≤ 75 |
| C=CCNC(=O)C(=O)C(CC1CC1)NC(=O)[C@@H]1[C@@H]2[C@H](CN1C(=O)[C@@H](NC(=O)N[C@H](CN(C)S(=O)(=O)c1cc(CN(C)C(=O)c3ccccc3)cs1)C(C)(C)C)C(C)(C)C)C2(C)C (some centres unmarked) [Compound 11362] | ≤ 75 |
| C#CCCC(NC(=O)[C@@H]1[C@@H]2[C@H](CN1C(=O)[C@@H](NC(=O)N[C@H](CN(C)S(=O)(=O)c1ccccc1)C(C)(C)C)C(C)(C)C)C2(C)C)C(=O)C(=O)NCC=C (some centres unmarked) [Compound 11363] | ≤ 75 |
| C=CCNC(=O)C(=O)C(CC1CCC1)NC(=O)[C@@H]1[C@@H]2[C@H](CN1C(=O)[C@@H](NC(=O)N[C@H](CN(C)S(=O)(=O)c1ccccc1)C(C)(C)C)C(C)(C)C)C2(C)C (some centres unmarked) [Compound 11364] | 75 to 250 |
| C=CCNC(=O)C(=O)C(CCC)NC(=O)[C@@H]1[C@@H]2[C@H](CN1C(=O)[C@@H](NC(=O)N[C@H](CN(C)S(=O)(=O)c1ccccn1)C(C)(C)C)C1(C)CCCCC1)C2(C)C (some centres unmarked) [Compound 11365] | ≤ 75 |
| C=CCNC(=O)C(=O)C(CCCC)NC(=O)[C@@H]1[C@@H]2[C@H](CN1C(=O)[C@@H](NC(=O)N[C@H](CN(C)S(=O)(=O)c1ccccn1)C(C)(C)C)C1(C)CCCCC1)C2(C)C (some centres unmarked) [Compound 11366] | ≤ 75 |
| C=CCNC(=O)C(=O)C(CC1CC1)NC(=O)[C@@H]1[C@@H]2[C@H](CN1C(=O)[C@@H](NC(=O)N[C@H](CN(C)S(=O)(=O)c1ccccn1)C(C)(C)C)C1(C)CCCCC1)C2(C)C (some centres unmarked) [Compound 11367] | ≤ 75 |
| C=CCNC(=O)C(=O)C(CC1CCC1)NC(=O)[C@@H]1[C@@H]2[C@H](CN1C(=O)[C@@H](NC(=O)N[C@H](CN(C)S(=O)(=O)c1ccccn1)C(C)(C)C)C1(C)CCCCC1)C2(C)C (some centres unmarked) [Compound 11368] | ≤ 75 |
| CCCNC(=O)C(=O)C(CC1CCC1)NC(=O)[C@@H]1[C@@H]2[C@H](CN1C(=O)[C@@H](NC(=O)N[C@H](CN(C)S(=O)(=O)c1ccccn1)C(C)(C)C)C1(C)CCCCC1)C2(C)C (some centres unmarked) [Compound 11369] | 75 to 250 |
| CCCCC(NC(=O)[C@@H]1[C@@H]2[C@H](CN1C(=O)[C@@H](NC(=O)N[C@H](CN(C)S(=O)(=O)c1ccccn1)C(C)(C)C)C1(C)CCCCC1)C2(C)C)C(=O)C(=O)NCC (some centres unmarked) [Compound 11370] | ≤ 75 |

| Structure (SMILES) | Ki [nM] |
| --- | --- |
| CN(C[C@@H](NC(=O)N[C@H](C(=O)N1C[C@H]2[C@@H]([C@H]1C(=O)NC(CC1CCC1)C(=O)C(N)=O)C2(C)C)C1(C)CCCCC1)C(C)(C)C)S(=O)(=O)c1ccccn1 (some centres unmarked) [Compound 11371] | ≤ 75 |
| C#CCCC(NC(=O)[C@@H]1[C@@H]2[C@H](CN1C(=O)[C@@H](NC(=O)N[C@H](CN(C)S(=O)(=O)c1ccccn1)C(C)(C)C)C1(C)CCCCC1)C2(C)C)C(=O)C(=O)NCC=C (some centres unmarked) [Compound 11372] | ≤ 75 |
| C=CCNC(=O)C(=O)C(CC1CCC1)NC(=O)[C@@H]1[C@@H]2[C@H](CN1C(=O)[C@@H](NC(=O)N[C@H](CN(C)S(=O)(=O)c1ccccn1)C(C)(C)C)C1Cc3ccccc3C1)C2(C)C (some centres unmarked) [Compound 11373] | ≤ 75 |
| C=CCNC(=O)C(=O)C(CCC)NC(=O)[C@@H]1[C@@H]2[C@H](CN1C(=O)[C@@H](NC(=O)N[C@H](CN(C)S(=O)(=O)c1ccccn1)C(C)(C)C)C1Cc3ccccc3C1)C2(C)C (some centres unmarked) [Compound 11374] | ≤ 75 |
| C=CCNC(=O)C(=O)C(CCCC)NC(=O)[C@@H]1[C@@H]2[C@H](CN1C(=O)[C@@H](NC(=O)N[C@H](CN(C)S(=O)(=O)c1ccccn1)C(C)(C)C)C1Cc3ccccc3C1)C2(C)C (some centres unmarked) [Compound 11375] | ≤ 75 |
| C#CCCC(NC(=O)[C@@H]1[C@@H]2[C@H](CN1C(=O)[C@@H](NC(=O)N[C@H](CN(C)S(=O)(=O)c1ccccn1)C(C)(C)C)C1Cc3ccccc3C1)C2(C)C)C(=O)C(=O)NCC=C (some centres unmarked) [Compound 11376] | ≤ 75 |
| CCCCC(NC(=O)[C@@H]1[C@@H]2[C@H](CN1C(=O)[C@@H](NC(=O)N[C@H](CN(C)S(=O)(=O)c1ccccn1)C(C)(C)C)C1Cc3ccccc3C1)C2(C)C)C(=O)C(=O)NCC (some centres unmarked) [Compound 11377] | ≤ 75 |
| C=CCNC(=O)C(=O)C(CC1CC1)NC(=O)[C@@H]1[C@@H]2[C@H](CN1C(=O)[C@@H](NC(=O)N[C@H](CN(C)S(=O)(=O)c1ccccn1)C(C)(C)C)C1Cc3ccccc3C1)C2(C)C (some centres unmarked) [Compound 11378] | 75 to 250 |
| C=CCNC(=O)C(=O)C(CCC)NC(=O)[C@@H]1[C@@H]2[C@H](CN1C(=O)[C@@H](NC(=O)N[C@H](C(=O)N(C)S(=O)(=O)c1ccccc1)C(C)C)C(C)(C)C)C2(C)C (some centres unmarked) [Compound 11381] | ≤ 75 |
| C=CCNC(=O)C(=O)C(CCC)NC(=O)[C@@H]1[C@@H]2[C@H](CN1C(=O)[C@@H](NC(=O)N[C@@H](CN(C)S(C)(=O)=O)C(C)C)C(C)(C)C)C2(C)C (some centres unmarked) [Compound 11382] | ≤ 75 |
| C=CCNC(=O)C(=O)C(CCC(F)(F)F)NC(=O)[C@@H]1[C@@H]2[C@H](CN1C(=O)[C@@H](NC(=O)N[C@H](CN(C)S(=O)(=O)c1cccs1)[C@@H](C)CC)C(C)(C)C)C2(C)C (some centres unmarked) [Compound 11385] | ≤ 75 |
| C=CCNC(=O)C(=O)C(CCC(F)(F)F)NC(=O)[C@@H]1[C@@H]2[C@H](CN1C(=O)[C@@H](NC(=O)N[C@H](CN(C)S(C)(=O)=O)C(C)(C)C)C1Cc3ccccc3C1)C2(C)C (some centres unmarked) [Compound 11387] | ≤ 75 |
| C=CCNC(=O)C(=O)C(CCC)NC(=O)[C@@H]1[C@@H]2[C@H](CN1C(=O)[C@@H](NC(=O)NCC1(N(C)S(C)(=O)=O)CCCCC1)C(C)(C)C)C2(C)C (some centres unmarked) [Compound 11389] | > 250 |
| C#CCCC(NC(=O)[C@@H]1[C@@H]2[C@H](CN1C(=O)[C@@H](NC(=O)N[C@H](CN(C(C)C)S(=O)(=O)c1cccs1)C(C)(C)C)C(C)(C)C)C2(C)C)C(=O)C(=O)NCC=C (some centres unmarked) [Compound 11390] | ≤ 75 |
| C=CCNC(=O)C(=O)C(CCC(F)(F)F)NC(=O)[C@@H]1[C@@H]2[C@H](CN1C(=O)[C@@H](NC(=O)N[C@H](CN(C)S(=O)(=O)C(C)(C)C)C(C)(C)C)C1Cc3ccccc3C1)C2(C)C (some centres unmarked) [Compound 11391] | 75 to 250 |

Same assay, conditions: Table 5A, range

| Structure (SMILES) | Ki [nM] |
| --- | --- |
| C=CCNC(=O)C(=O)C(CC1CCC1)NC(=O)[C@@H]1[C@@H]2[C@H](CN1C(=O)[C@@H](NC(=O)N[C@H](CN(C)S(=O)(=O)c1ccccn1)C(C)(C)C)C1Cc3ccccc3C1)C2(C)C (some centres unmarked) [Compound 11392] | ≤ 75 |
| C=CCNC(=O)C(=O)C(CCC)NC(=O)[C@@H]1[C@@H]2[C@H](CN1C(=O)[C@@H](NC(=O)N[C@H](CN(C)S(=O)(=O)c1ccccn1)C(C)(C)C)C1Cc3ccccc3C1)C2(C)C (some centres unmarked) [Compound 11393] | ≤ 75 |
| C=CCNC(=O)C(=O)C(CCCC)NC(=O)[C@@H]1[C@@H]2[C@H](CN1C(=O)[C@@H](NC(=O)N[C@H](CN(C)S(=O)(=O)c1ccccn1)C(C)(C)C)C1Cc3ccccc3C1)C2(C)C (some centres unmarked) [Compound 11394] | ≤ 75 |
| C#CCCC(NC(=O)[C@@H]1[C@@H]2[C@H](CN1C(=O)[C@@H](NC(=O)N[C@H](CN(C)S(=O)(=O)c1ccccn1)C(C)(C)C)C1Cc3ccccc3C1)C2(C)C)C(=O)C(=O)NCC=C (some centres unmarked) [Compound 11395] | ≤ 75 |
| CCCCC(NC(=O)[C@@H]1[C@@H]2[C@H](CN1C(=O)[C@@H](NC(=O)N[C@H](CN(C)S(=O)(=O)c1ccccn1)C(C)(C)C)C1Cc3ccccc3C1)C2(C)C)C(=O)C(=O)NCC (some centres unmarked) [Compound 11396] | ≤ 75 |
| C=CCNC(=O)C(=O)C(CC1CC1)NC(=O)[C@@H]1[C@@H]2[C@H](CN1C(=O)[C@@H](NC(=O)N[C@H](CN(C)S(=O)(=O)c1ccccn1)C(C)(C)C)C1Cc3ccccc3C1)C2(C)C (some centres unmarked) [Compound 11397] | 75 to 250 |
| CCCCC(NC(=O)[C@@H]1[C@@H]2[C@H](CN1C(=O)[C@@H](NC(=O)N[C@H](CN(C)S(=O)(=O)CC)C(C)(C)C)C1Cc3ccccc3C1)C2(C)C)C(=O)C(=O)NCCC (some centres unmarked) [Compound 11398] | ≤ 75 |
| CCCCC(NC(=O)[C@@H]1[C@@H]2[C@H](CN1C(=O)[C@@H](NC(=O)N[C@H](CN(C)S(=O)(=O)CC)C(C)(C)C)C1Cc3ccccc3C1)C2(C)C)C(=O)C(=O)NC1CC1 (some centres unmarked) [Compound 11399] | ≤ 75 |
| CCCC(NC(=O)[C@@H]1[C@@H]2[C@H](CN1C(=O)[C@@H](NC(=O)N[C@H](CN(C)S(=O)(=O)CC)C(C)(C)C)C1Cc3ccccc3C1)C2(C)C)C(=O)C(=O)NC1CC1 (some centres unmarked) [Compound 11400] | ≤ 75 |
| C=CCNC(=O)C(=O)C(CCCC)NC(=O)[C@@H]1[C@@H]2[C@H](CN1C(=O)[C@@H](NC(=O)N[C@H](CN(CC)S(=O)(=O)CC)C(C)(C)C)C1Cc3ccccc3C1)C2(C)C (some centres unmarked) [Compound 11401] | ≤ 75 |
| CCCCC(NC(=O)[C@@H]1[C@@H]2[C@H](CN1C(=O)[C@@H](NC(=O)N[C@H](CN(CC)S(=O)(=O)CC)C(C)(C)C)C1Cc3ccccc3C1)C2(C)C)C(=O)C(=O)NCC (some centres unmarked) [Compound 11402] | ≤ 75 |

Same assay, conditions: Table 6

| Structure (SMILES) | Ki [nM] |
| --- | --- |
| C#CCCC(NC(=O)[C@@H]1[C@@H]2[C@H](CN1C(=O)[C@@H](NC(=O)N[C@H](CN(C)S(=O)(=O)c1ccccn1)C(C)(C)C)C1Cc3ccccc3C1)C2(C)C)C(=O)C(=O)NCC=C (some centres unmarked) [Compound 11395] | 8 |
| CCCCC(NC(=O)[C@@H]1[C@@H]2[C@H](CN1C(=O)[C@@H](NC(=O)N[C@H](CN(C)S(=O)(=O)CC)C(C)(C)C)C1Cc3ccccc3C1)C2(C)C)C(=O)C(=O)NC1CC1 (some centres unmarked) [Compound 11399] | 4 |
| CCCC(NC(=O)[C@@H]1[C@@H]2[C@H](CN1C(=O)[C@@H](NC(=O)N[C@H](CN(C)S(=O)(=O)CC)C(C)(C)C)C1Cc3ccccc3C1)C2(C)C)C(=O)C(=O)NC1CC1 (some centres unmarked) [Compound 11400] | 9 |
| C=CCNC(=O)C(=O)C(CCCC)NC(=O)[C@@H]1[C@@H]2[C@H](CN1C(=O)[C@@H](NC(=O)N[C@H](CN(CC)S(=O)(=O)CC)C(C)(C)C)C1Cc3ccccc3C1)C2(C)C (some centres unmarked) [Compound 11401] | 6 |
| CCCCC(NC(=O)[C@@H]1[C@@H]2[C@H](CN1C(=O)[C@@H](NC(=O)N[C@H](CN(CC)S(=O)(=O)CC)C(C)(C)C)C1Cc3ccccc3C1)C2(C)C)C(=O)C(=O)NCC (some centres unmarked) [Compound 11402] | 10 |
